Here are results for two molecules from patent US20240139185A1, “COMPOUNDS THAT PARTICIPATE IN COOPERATIVE BINDING AND USES THEREOF” (Revolution Medicines, Inc., priority 2018, published 2024).

Experiment [1] concerns the target BRAF-GTP-KRAS-G12C complex (Homo sapiens, UniProt P01116, G12C). The experiment can be described thus: KRAS-BRAF complex disruption TR-FRET without CYPA (presenter dependence). The note with it: read-out: BRAF-GTP-KRAS-G12C complex disruption without CYPA (IC50). The method, then: In this example, TR-FRET was used to measure the compound-facilitated disruption of a KRAS-BRAF complex. A mixture of tagless Cyclophilin A, His6-KRAS G12C-GMP-PNP, and GST-BRAF RAS binding domain was added to a 384-well assay plate containing compounds of the invention and incubated for 3 hours. A mixture of Anti-His Eu-W1024 and anti-GST allophycocyanin was then added and the reaction was incubated for an additional 1.5 hours. TR-FRET signal was read on an EnVision microplate reader (Perkin Elmer, Ex 320 nm, Em 665/615 nm). Compounds that facilitate disruption of a KRAS_BRAF complex were identified as those eliciting a decrease in the TR-FRET ratio relative to DMSO control wells. To determine the presenter-dependence of the compound-mediated KRAS-BRAF complex disruption, Cyclophilin A was left out of the initial incubation (see Table 5). To determine G12C specificity of the compound-mediated KRAS-BRAF complex disruption, wild-type KRAS was used instead of G12C KRAS (see Table 5). […]
Experimental Protocol • 1. Use Mosquito to dispense 100 nL/well of compounds (varying concentration in […]) into 384-well black ProxiPlate to make assay-ready-plate (ARP). • 2. […] Read on EnVision (Ex: 320 nm; Em1: 615 nm; Em2: 665 nm). • 8. […]

The target in a further experiment is KRAS-G12C (Homo sapiens, UniProt P01116+P62937, G12C). The experiment can be described thus: Percentage of crosslinking to KRAS-G12C in the presence of BME and CYPA (TOF-MS). Conditions: compound 2 μM, CypA 5 μM, G12C-GMPNP 0.5 μM, BME. The method, then: • 1. 10×Incubation buffer: 125 mM HEPES pH 7.4, 750 mM NaCl, 10 mM MgCl2 • 2. 50 μM Protein A stock (CypA) in incubation buffer • 3. 5 μM Protein B (G12C-GMPNP) stock in incubation buffer • 4. 20 μM compound stock in 1×Incubation buffer with 10% DMSO • 5. 25 mM BME stock solution (prepared by diluting the BME stock in Milli Q water)
CypA 1-165 (final concentration 5 μM), test compound (final concentration 2 μM) and G12C-GMPNP (final concentration 0.5 μM) were incubated in the incubation buffer ([…]) for the requisite amount of time at room temperature. The samples were quenched with formic acid, final concentration 0.5%. 10 μL aliquots were injected to TOF-MS.
Sequence of Addition for a Final Incubation Volume of 50 μL • 1. 5 μL 10×incubation buffer • 2. 28 ul H2O • 3. 2 μL from 25 mM BME stock • 4. 5 μL CypA at 50 uM • 5. 5 μL from 5 μM G12C-GMPNP • 6. 5 μL compound from 20 μM compound stock
LC-MS is performed on an Agilent 6230 TOF-LC mass spectrometer equipped with an electrospray probe operated in positive ionization mode. 10 μL samples are injected on a Sepax Bio-C4, 300 Å, 2.1×100 mm column. The mobile phase is 0.1% (vol/vol) formic acid and 0.1% 1 mM ammonium formate in 95% water, 4.8% acetonitrile (A) and 0.1% (vol/vol) formic acid and 0.1% 1 mM ammonium formate in 95% acetonitrile and 4.8% water (B). […]

For experiment [2], the target named is BRAF-GTP-KRAS-G12C complex (Homo sapiens, UniProt P01116+P62937, G12C). The experiment can be described thus: KRAS-BRAF complex disruption through competition with CYPA-compound by TR-FRET. The note with it: read-out: BRAF-GTP-KRAS-G12C Disruption; biochemical BRAF-KRAS G12C-GTP disruption assay EC50, with CYPA. In short, it runs like this:
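Compound-driven loss of KRAS–BRAF RBD TR-FRET signal, Eu-anti-His/APC-anti-GST pair (10/50 nM, 1.5 h), following a 3 h room-temperature preincubation of 50 nM His6-KRAS G12C-GTP and 500 nM CypA in 25 mM Hepes pH 7.3 buffer. EC50 by 4-parameter fit. Variants used wild-type KRAS in place of G12C or no CypA.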
For orientation: In TR-FRET formats the signal depends on donor and acceptor labels being close together.

The term IC50 denotes the concentration that inhibits the measured activity by half. For the molecule `CC(C)[C@@H](C(=O)N[C@H]1Cc2cc(O)cc(c2)-c2ccc3c(c2)n(c(=O)n3C2CC2)C[C@H](C)COC(=O)[C@@H]2CCCN(N2)C1=O)N(C)C(=O)C1CN(C(=O)CCl)C1`, in experiment [1], the IC50 is > 30 µM. Moreover, the “% Crosslinking with KRAS-G12C-GTP in presence of CYPA, 5 min incubation” value on KRAS-G12C was 62%. The EC50 in experiment [2] was < 0.5 µM.

For the molecule `CC(C)[C@@H](C(=O)N[C@H]1Cc2cc(O)cc(c2)-c2ccc3c(c2)N(C[C@H](C)COC(=O)[C@@H]2CCCN(N2)C1=O)CC3(C)/C=C/C#N)N(C)C(=O)C1CN(C(=O)CCl)C1` (single isomer, unassigned) [221], in experiment [1], the IC50 was > 30 µM. Also, the “% Crosslinking with KRAS-G12C-GTP in presence of CYPA, 5 min incubation” value at KRAS-G12C is on record as 28%. Also, the EC50 in experiment [2] was < 0.5 µM.
